ChEMBL document CHEMBL1130059, “Neurotrophic 3,9-bis[(alkylthio)methyl]-and-bis(alkoxymethyl)-K-252a derivatives” (J Med Chem, 1997)

Molecular target: Protein kinase C (PKC)
Test: Inhibition of Protein kinase C of Rat brain

Work on `COC(=O)[C@@]1(O)C[C@H]2O[C@]1(C)n1c3ccccc3c3c4c(c5c6ccccc6n2c5c31)C(=O)NC4` [K-252A] yielded an IC50 of 0.028 nM.
